Test results as given in paper PMC11305080 (2024).

Sequences of proteins named here, by UniProt entry; tags and fusion partners are left off. Residues count along the entry.
UniProt Q8NBP7, 153-692: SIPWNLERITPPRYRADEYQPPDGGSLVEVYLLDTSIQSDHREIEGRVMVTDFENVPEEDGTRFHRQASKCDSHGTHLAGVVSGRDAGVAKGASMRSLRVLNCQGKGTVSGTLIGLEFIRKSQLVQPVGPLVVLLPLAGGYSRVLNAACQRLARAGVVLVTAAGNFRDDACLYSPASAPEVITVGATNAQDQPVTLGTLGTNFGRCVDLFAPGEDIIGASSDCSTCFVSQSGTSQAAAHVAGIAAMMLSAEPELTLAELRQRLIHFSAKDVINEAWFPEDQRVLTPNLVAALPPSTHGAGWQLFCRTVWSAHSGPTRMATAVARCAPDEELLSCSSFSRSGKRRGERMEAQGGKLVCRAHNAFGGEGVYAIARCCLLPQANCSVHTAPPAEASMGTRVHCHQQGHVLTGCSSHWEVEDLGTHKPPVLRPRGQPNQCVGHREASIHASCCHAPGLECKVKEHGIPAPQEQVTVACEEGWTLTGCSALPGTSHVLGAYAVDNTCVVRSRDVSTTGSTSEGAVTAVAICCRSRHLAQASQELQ

Target: human proprotein convertase subtilisin/kexin type 9 (PCSK9) (human, UniProt Q8NBP7 153-692)
Assay: BLI

Kd: 15.8 nM
B1: 1D05 Fab (Fab, V domains shown)
VH: QVQLVQSGAEVKKPGSSVKVSCKASGGTFNSHAISWVRQAPGQGLEWMGGINPILGIANYAQKFQGRVTITADESTSTAYMELSSLRSEDTAVYYCARHYEIQIGRYGMNVYYLMYRFASWGQGTLVTVSS
VL: DIQMTQSPSSLSASVGDRVTITCRASQGIRSALNWYQQKPGKAPKLLIYNGSTLQSGVPSRFSGSGSGTDFTLTISSLQPEDFAVYYCQQFDGDPTFGQGTKVEIK
